Tested on: Plasmodium falciparum
Assay: Antiplasmodial activity against Plasmodium falciparum strain NF54 assessed as 99% parasite clearance time in presence of 2% haematocrit and 0.5 % parasitemia at 10 times EC50 followed by media with compound exchanged daily measured after 2 weeks by standard hypoxanthine assay
Type: functional

Work on `CCN(CC)CCCC(C)Nc1ccnc2cc(Cl)ccc12` (stereo unspecified) [CHLOROQUINE] yielded a Time of 66.1 h.

Source: ChEMBL document CHEMBL6134860, “Discovery and optimization of a novel carboxamide scaffold with selective antimalarial activity” (Eur J Med Chem, 2025)
